Experimental findings from ChEMBL document CHEMBL5154682, “TDP-43 Modulation by Tau-Tubulin Kinase 1 Inhibitors: A New Avenue for Future Amyotrophic Lateral Sclerosis Therapy” (J Med Chem, 2022) are described below.

Protein sequences, listed by entry. Tags and fused reporters are not part of them. Lines headed by an entry give the natural chain unless they say otherwise; changes in a name come on top.
UniProt Q5TCY1: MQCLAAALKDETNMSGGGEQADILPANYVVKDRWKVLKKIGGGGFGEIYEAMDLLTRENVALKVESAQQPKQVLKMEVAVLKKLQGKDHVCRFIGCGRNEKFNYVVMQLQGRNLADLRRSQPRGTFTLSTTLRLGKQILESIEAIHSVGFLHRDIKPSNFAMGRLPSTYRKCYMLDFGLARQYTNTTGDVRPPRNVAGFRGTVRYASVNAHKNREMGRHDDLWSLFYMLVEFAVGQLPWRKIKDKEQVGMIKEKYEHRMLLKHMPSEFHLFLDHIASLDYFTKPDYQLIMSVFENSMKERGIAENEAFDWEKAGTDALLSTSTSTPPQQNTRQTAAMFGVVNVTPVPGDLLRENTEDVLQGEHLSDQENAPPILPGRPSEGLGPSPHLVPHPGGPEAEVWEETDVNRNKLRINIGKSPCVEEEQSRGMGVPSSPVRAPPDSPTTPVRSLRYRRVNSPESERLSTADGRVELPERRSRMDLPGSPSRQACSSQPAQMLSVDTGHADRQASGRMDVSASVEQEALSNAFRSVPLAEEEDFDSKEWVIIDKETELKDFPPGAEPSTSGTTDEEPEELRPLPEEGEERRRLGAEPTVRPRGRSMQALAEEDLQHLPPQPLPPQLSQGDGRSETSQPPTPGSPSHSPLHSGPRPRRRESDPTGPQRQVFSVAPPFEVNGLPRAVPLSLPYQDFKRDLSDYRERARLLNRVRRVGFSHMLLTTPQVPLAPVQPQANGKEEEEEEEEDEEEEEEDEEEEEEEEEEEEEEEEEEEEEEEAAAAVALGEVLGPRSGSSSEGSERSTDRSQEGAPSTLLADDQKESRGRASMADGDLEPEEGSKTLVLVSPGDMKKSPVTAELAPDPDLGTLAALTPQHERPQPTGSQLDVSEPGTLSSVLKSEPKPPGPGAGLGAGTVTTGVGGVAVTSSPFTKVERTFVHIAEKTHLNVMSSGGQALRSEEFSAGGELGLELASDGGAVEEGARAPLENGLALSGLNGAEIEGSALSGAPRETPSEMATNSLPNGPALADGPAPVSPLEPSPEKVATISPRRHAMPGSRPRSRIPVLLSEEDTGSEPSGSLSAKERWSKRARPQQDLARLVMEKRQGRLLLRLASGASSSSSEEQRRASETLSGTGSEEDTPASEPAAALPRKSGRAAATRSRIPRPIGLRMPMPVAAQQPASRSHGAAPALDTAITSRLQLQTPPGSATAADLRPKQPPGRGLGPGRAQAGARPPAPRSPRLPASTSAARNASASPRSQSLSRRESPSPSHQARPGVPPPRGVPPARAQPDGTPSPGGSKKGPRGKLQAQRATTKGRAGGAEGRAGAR

Assay [1] can be described thus: Selectivity index, ratio of IC50 for recombinant human TTBK1 to IC50 for recombinant human TTBK2.
The next assay addresses Tau-tubulin kinase 1 (Homo sapiens, UniProt Q5TCY1).

On to `O=[N+]([O-])c1ccc(Sc2ccc(Nc3ncnc4[nH]ccc34)cc2)cc1`, for which the Selectivity Index in assay [1] was found to be 0.11.
Take `Clc1cccc(Oc2ccc(Nc3ncnc4[nH]ccc34)cc2)c1`: in assay [1], the Selectivity Index is 0.02.
On the same count and under the same terms, with `Cc1ccc(Oc2ccc(Nc3ncnc4[nH]ccc34)cc2)cc1` the figure was 0.11; with `FC(F)(F)c1cccc(Oc2ccc(Nc3ncnc4[nH]ccc34)cc2)c1`, 0.06.
What is called IC50 is the concentration that gives 50% inhibition. A high value points to weaker potency. On to `Clc1ccccc1Oc1ccc(Nc2ncnc3[nH]ccc23)cc1`, for which the IC50 against Tau-tubulin kinase 1 is 330 nM. For the same molecule, in assay [1], the Selectivity Index came to 1.08.
Turning to `N#Cc1ccc(Oc2ccc(Nc3ncnc4[nH]ccc34)cc2)cc1`, the Selectivity Index in assay [1] turned out to be 0.25.
Molecule `COc1ccc(Oc2ccc(Nc3ncnc4[nH]ccc34)cc2)cc1` gave an IC50 against Tau-tubulin kinase 1 of 340 nM. In assay [1], the Selectivity Index was 0.55.
Consider `FC(F)(F)c1ccc(Oc2ccc(Nc3ncnc4[nH]ccc34)cc2)cc1`, for which the Selectivity Index in assay [1] was determined as 0.06.
For `Nc1ccc(Oc2ccc(Nc3ncnc4[nH]ccc34)cc2)cc1`, the Selectivity Index in assay [1] came to 0.1.
